PubChem BioAssay (Tox21)
Values joined by “and” are separate entries in the source; they are usually repeats but may differ in a detail not shown here. Equal values may be shown once. This is a selection; strong and weak results do not stand in their true shares. Inconclusive results are not listed. Active and inactive are the calls of the source. Unless noted, calls come from the whole dose curve; as a rule, active = well fitted curve in the direction sought with a large enough effect in the repeat runs; inconclusive = weak or mixed curves; inactive = no such curve, though single readings can be large; an effect the other way counts as inactive or inconclusive.

The chains behind the UniProt entries cited, without tags or fusion partners.
UniProt Q03181, whole entry: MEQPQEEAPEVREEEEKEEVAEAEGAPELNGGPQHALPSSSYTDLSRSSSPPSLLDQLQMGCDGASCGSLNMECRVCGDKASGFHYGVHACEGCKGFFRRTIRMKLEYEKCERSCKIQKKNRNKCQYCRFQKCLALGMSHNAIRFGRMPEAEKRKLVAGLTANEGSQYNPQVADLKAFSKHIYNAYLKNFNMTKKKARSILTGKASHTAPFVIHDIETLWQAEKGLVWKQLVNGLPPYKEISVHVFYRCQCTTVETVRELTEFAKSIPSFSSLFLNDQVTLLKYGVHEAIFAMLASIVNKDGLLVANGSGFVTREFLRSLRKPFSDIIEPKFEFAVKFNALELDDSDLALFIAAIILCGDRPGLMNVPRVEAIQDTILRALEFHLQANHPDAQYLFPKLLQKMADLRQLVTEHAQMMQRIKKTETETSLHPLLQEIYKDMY
UniProt Q96RI1, whole entry: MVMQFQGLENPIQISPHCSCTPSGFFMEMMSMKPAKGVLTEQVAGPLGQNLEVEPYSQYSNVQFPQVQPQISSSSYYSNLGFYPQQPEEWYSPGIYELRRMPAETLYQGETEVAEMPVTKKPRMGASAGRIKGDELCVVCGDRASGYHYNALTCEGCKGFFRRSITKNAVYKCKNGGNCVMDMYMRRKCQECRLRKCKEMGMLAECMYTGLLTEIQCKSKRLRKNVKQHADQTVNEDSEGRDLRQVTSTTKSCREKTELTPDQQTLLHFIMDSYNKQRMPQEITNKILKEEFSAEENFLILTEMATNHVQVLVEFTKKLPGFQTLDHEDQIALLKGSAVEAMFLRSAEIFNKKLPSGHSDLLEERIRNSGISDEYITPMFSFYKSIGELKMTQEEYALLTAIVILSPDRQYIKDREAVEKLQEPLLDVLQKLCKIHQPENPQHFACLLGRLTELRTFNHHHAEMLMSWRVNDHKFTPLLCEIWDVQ
UniProt P11473, whole entry: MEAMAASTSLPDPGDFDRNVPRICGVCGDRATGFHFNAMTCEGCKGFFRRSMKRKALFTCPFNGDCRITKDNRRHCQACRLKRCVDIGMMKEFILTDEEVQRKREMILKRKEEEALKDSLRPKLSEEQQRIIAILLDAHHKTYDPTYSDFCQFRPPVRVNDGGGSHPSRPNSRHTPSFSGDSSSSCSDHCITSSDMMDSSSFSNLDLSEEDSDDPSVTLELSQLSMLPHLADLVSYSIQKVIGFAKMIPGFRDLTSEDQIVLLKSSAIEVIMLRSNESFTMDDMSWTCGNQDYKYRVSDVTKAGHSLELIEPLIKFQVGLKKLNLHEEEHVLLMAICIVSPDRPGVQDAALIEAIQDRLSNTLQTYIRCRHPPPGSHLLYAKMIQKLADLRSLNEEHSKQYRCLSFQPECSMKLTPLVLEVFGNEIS

Columns and labels:
[1] = qHTS assay for small molecule agonists of the antioxidant response element (ARE) signaling pathway - cell viability counter screen (AID 743203; calls by dose curve; note: nearly all actives have a fitted effect of over 55% in size); conditions: ARE-bla HepG2 viability, CellTiter-Glo luminescence, 16 h
How it was run: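 CellSensor ARE-bla HepG2 cells, 2,000 per well, rested 5 hrs at 37C/5% CO2, then exposed to compound in DMSO for 16 hrs; viability read as CellTiter-Glo luminescence after 30 min at room temperature, in the reporter wells.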

[2] = qHTS assay for small molecule activators of the heat shock response signaling pathway (AID 743210; active = well fitted activation curve with a large enough effect in the signal ratio in the repeat runs, with a control signal flat, not every such curve was filed as active; the % refers to the signal ratio;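 note: HeLa cells with beta-lactamase reporter driven by heat shock elements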); conditions: HeLa HSE-bla reporter, beta-lactamase ratio, 5 h; at 62.6 µM (top of the series)
How it was run: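 Quantitative high-throughput format using an engineered HeLa line in which heat shock response elements drive beta-lactamase; after 5 h with compound, cells received a B/G FRET substrate and fluorescence was read.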

[3] = qHTS assay to identify small molecule agonists of the peroxisome proliferator-activated receptor delta (PPARd) signaling pathway - cell viability counter screen (AID 743211); conditions: PPARd-bla HEK293H viability, CellTiter-Glo luminescence, 17 h; at 62.6 µM (top of the series); note: nearly all actives have a fitted effect of over 55% in size
How it was run: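 PPARd-bla HEK293H cells (UAS-beta-lactamase reporter) were treated with compounds for 17 h at 37 C. Viability was then read in the same wells by CellTiter-Glo luminescence after 30 min at room temperature.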

[4] = target: Peroxisome proliferator-activated receptor delta (Homo sapiens) (UniProt Q03181); test: qHTS assay to identify small molecule agonists of the peroxisome proliferator-activated receptor delta (PPARd) signaling pathway (AID 743212; calls by dose curve); conditions: HEK293H PPARd-UAS-bla, beta-lactamase FRET ratio, 17 h; at 62.6 µM (top of the series)
How it was run: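 Quantitative high-throughput agonist screen in a HEK293H beta-lactamase reporter line under UAS control. Compounds in DMSO, at 37 C. Fluorescence read after 2 h with FRET substrate at room temperature.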

[5] = qHTS assay to identify small molecule antagonists of the peroxisome proliferator-activated receptor delta (PPARd) signaling pathway - cell viability counter screen (AID 743213); conditions: PPARd-bla HEK293H viability, CellTiter-Glo luminescence, 17 h; note: nearly all actives have a fitted effect of over 50% in size
How it was run: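 In this counter screen, HEK293H cells carrying a UAS-beta-lactamase reporter are co-treated with test compounds and 300 nM L165041 (final) for 17 h at 37 C; cell viability is quantified by CellTiter-Glo luminescence.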

[6] = target: Bile acid receptor (Homo sapiens) (UniProt Q96RI1); test: qHTS assay to identify small molecule antagonists of the farnesoid-X-receptor (FXR) signaling pathway (AID 743217; active = well fitted inhibition curve with a large enough effect in the signal ratio in the repeat runs, not every such curve was filed as active; the % refers to the signal ratio); conditions: HEK293T FXR-UAS-bla, beta-lactamase ratio, CDCA-stimulated, 16 h; at 62.6 µM (top of the series)
Text: U.S. Tox21 Program National Center for Advancing Translational Sciences [NCATS] NIH Chemical Genomics Center [NCGC] U.S. Environmental Protection Agency [EPA] National Institutes of Environmental Health Sciences [NIEHS] National Toxicology Program [NTP] U.S. Food and Drug Administration [FDA] Tox21 Assay Overview: The farnesoid-X-receptor (FXR), a nuclear hormone receptor, is highly expressed in liver, intestine, kidney and adrenal cortex. Natural ligands of FXR are the bile acids (Cholic acid, Chenodeoxy cholic acid etc). FXR is an important regulator of diverse metabolic pathways, including the bile acid homeostasis, lipid and glucose metabolisms. FXR regulates the expression of target genes by binding either as a monomer or as a heterodimer with the retinoid X receptor (RXR). Numerous studies have reported that FXR exerts protective function during cholestasis, diabetes, liver regeneration, and cancer. To identify compounds that inhibit FXR signaling, GeneBLAzer FXR-UAS-bla HEK 293T cell line (Invitrogen, Carlsbad, CA) containing a beta-lactamase reporter gene under the control of a UAS response element was used to screen the Tox21 10K compound library.
Tox21 Assay Protocol Summary: FXR-bla cells were dispensed at 5000 cells/5uL/well in 1536-well black wall/clear bottom plates using a Multidrop Combi (Thermo Fisher Scientific, Waltham, MA) dispenser. After the assay plates were incubated at 37C and 5% CO2 for 5 h, 23 nL of compounds dissolved in DMSO, positive controls or DMSO only was transferred to the assay plate by a Pintool station (Kalypsys, San Diego, CA), followed by addition of 1 uL Chenodeoxycholic acid (50 uM, final concentration in the wells). The assay plates were incubated at 37C for 16 h. After 1 uL of LiveBLAzerTM B/G FRET substrate was added using a Bioraptr Flying Reagent Dispenser (FRD) workstation (Beckman Coulter, Indianapolis, IN), the plates were incubated at room temperature for 2 h, and fluorescence intensity was measured by an Envision plate reader (PerkinElmer, Shelton, CT).

[7] = qHTS assay to identify small molecule agonists of the farnesoid-X-receptor (FXR) signaling pathway - cell viability counter screen (AID 743218); conditions: FXR-bla HEK293T viability, CellTiter-Glo luminescence, 16 h; at 62.6 µM (top of the series); note: nearly all actives have a fitted effect of over 45% in size
How it was run: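 FXR-UAS-bla HEK 293T cells, plated 5 h at 37 C, were exposed to compounds for 16 h at 37 C. CellTiter-Glo was then added to the same wells as the bla readout; luminescence read after 30 min at room temperature.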

[8] = target: Bile acid receptor (Homo sapiens) (UniProt Q96RI1); test: qHTS assay to identify small molecule agonists of the farnesoid-X-receptor (FXR) signaling pathway (AID 743220; active = well fitted activation curve with a large enough effect in the signal ratio in the repeat runs, not every such curve was filed as active; the % refers to the signal ratio); conditions: HEK293T FXR-UAS-bla, beta-lactamase FRET ratio, 16 h; at 62.6 µM (top of the series)
[9] = target: Vitamin D3 receptor (Homo sapiens) (UniProt P11473); test: qHTS assay to identify small molecule antagonists of the vitamin D receptor (VDR) signaling pathway (AID 743223; active = well fitted inhibition curve with a large enough effect in the signal ratio in the repeat runs, not every such curve was filed as active; the % refers to the signal ratio); conditions: VDR-UAS-bla HEK293T, beta-lactamase FRET ratio, 16 h
How it was run: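 VDR-bla cells were plated, incubated 4 h at 37C, then given compound and 1alpha,25-dihydroxyvitamin D3 (3 nM final). After 16 h at 37C, LiveBLAzer B/G FRET substrate was added for 2 h at room temperature and fluorescence read.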

[10] = qHTS assay to identify small molecule agonists of the vitamin D receptor (VDR) signaling pathway - cell viability counter screen (AID 743224); conditions: VDR-bla HEK293T viability, CellTiter-Glo luminescence, 16 h; note: nearly all actives have a fitted effect of over 50% in size
How it was run: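 VDR-bla cells were preincubated 4 h at 37C/5% CO2, then exposed to compounds for 16 h. After the 2 h room-temperature bla FRET read, CellTiter-Glo was added to the same wells and luminescence read after 30 min.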
% is set by controls: 0 for no effect and ±100 for the full control effect.

Cc1c([N+](=O)[O-])cccc1[N+](=O)[O-]
inactive: viability change, negative = cytotoxic ([1]; at 73.3 µM (top of the series)) 11.1% and 2.83% | activation [2] -1.84% and -1.21% | activity change, negative = cytotoxicity [3] -3.01% and 4.24% | activation [4] 1.03% | viability change, negative = cytotoxic ([5]; at 62 µM (top of the series)) 6.58% and 1.93% | activity change, negative = inhibition [6] -8.6% and 9.84% | viability change, negative = cytotoxic [7] -0.88% and 6.68% | activation [8] -0.653% and 0.925% | activity change, negative = inhibition ([9]; at 61 µM (top of the series)) 7.88% and -22.7% | activity change, negative = cytotoxicity ([10]; at 62.6 µM (top of the series)) 0.462% and -1.25%

O=[N+]([O-])[O-].[NH4+]
inactive: viability change, negative = cytotoxic ([1]; at 73.3 µM (top of the series)) -0.272% and 13.1% | activation [2] -0.213% and 6.35% | activity change, negative = cytotoxicity [3] 11.3% and 6.58% | viability change, negative = cytotoxic ([5]; at 62 µM (top of the series)) 1.41% and 6.71% | viability change, negative = cytotoxic [7] 14.8% | activity change, negative = cytotoxicity ([10]; at 62.6 µM (top of the series)) 7.18% and -0.674%

Nc1cc([N+](=O)[O-])cc([N+](=O)[O-])c1O
inactive: viability change, negative = cytotoxic ([1]; at 94.8 µM (top of the series)) -10.4% | viability change, negative = cytotoxic ([5]; at 80.4 µM (top of the series)) -0.522% | activity change, negative = inhibition ([9]; at 78.8 µM (top of the series)) 19.7% | activity change, negative = cytotoxicity ([10]; at 81.1 µM (top of the series)) 0.0211%

CP(=O)(O)OCCC[Si](O)(O)O
inactive: viability change, negative = cytotoxic ([1]; at 73.3 µM (top of the series)) 0.568% | activation [2] -1.29% | activity change, negative = cytotoxicity [3] 9.22% | activation [4] 1.72% | viability change, negative = cytotoxic ([5]; at 62 µM (top of the series)) -0.39% | activity change, negative = inhibition [6] 5% | viability change, negative = cytotoxic [7] 0.719% | activation [8] -0.628% | activity change, negative = cytotoxicity ([10]; at 62.6 µM (top of the series)) 12.5%

O=[N+]([O-])OCC(CO[N+](=O)[O-])(CO[N+](=O)[O-])CO[N+](=O)[O-]
inactive: viability change, negative = cytotoxic ([1]; at 73.3 µM (top of the series)) 10.5% | activation [2] -0.315% | activity change, negative = cytotoxicity [3] 5.33% | activation [4] 4.68% | viability change, negative = cytotoxic ([5]; at 62 µM (top of the series)) -12% | activity change, negative = inhibition [6] 0.223% | viability change, negative = cytotoxic [7] -0.0782% | activation [8] 0.195% | activity change, negative = inhibition ([9]; at 61 µM (top of the series)) 5.43% | activity change, negative = cytotoxicity ([10]; at 62.6 µM (top of the series)) 14.1%
